# Experimental data reported in patent US9440982B2 (Eolas Therapeutics, Inc., priority 2012, dated 2016).
# Protein sequences, listed by entry. Tags and fused reporters are not part of them.
# UniProt O43614, whole entry: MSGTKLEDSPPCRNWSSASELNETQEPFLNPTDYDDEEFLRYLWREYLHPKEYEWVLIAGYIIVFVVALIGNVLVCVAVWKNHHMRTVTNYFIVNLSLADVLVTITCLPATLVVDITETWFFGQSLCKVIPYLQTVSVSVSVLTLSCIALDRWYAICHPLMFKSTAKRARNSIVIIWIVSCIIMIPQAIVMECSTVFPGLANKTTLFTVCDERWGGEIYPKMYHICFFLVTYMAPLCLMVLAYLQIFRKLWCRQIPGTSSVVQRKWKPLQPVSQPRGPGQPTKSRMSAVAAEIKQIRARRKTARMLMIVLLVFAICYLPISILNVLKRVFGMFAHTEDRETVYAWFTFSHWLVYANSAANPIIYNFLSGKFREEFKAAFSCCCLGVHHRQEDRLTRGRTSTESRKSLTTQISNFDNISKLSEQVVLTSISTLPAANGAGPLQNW
# Target: T1, OX2 (Homo sapiens, UniProt O43614)
# T1 construct: expressed in transfected cells; host or cells: CHO (CHO-OX2, kept under selection antibiotic)
# Experiment: Orexin receptor cell-based functional assay, [Ca2+]i by FLIPR, CHO-OX2 cells
# Conditions: CHO-OX2 cells, [Ca2+]i by FLIPR, antagonist dose-range 0.1 nM-10 μM, EC90 of OXA; read-out: OX2
row,Compound,pIC50
1,"Cc1ccc(-n2cccn2)c(C(=O)N2CCC[C@@H](C)[C@H]2CNc2ncc(C(F)(F)F)cn2)n1 [Example A166, ((2S,3R)-3-Methyl-2-(((5-(trifluoromethyl)pyrimidin-2-yl)amino)methyl)piperidin-1-yl)(6-methyl-3-(1H-pyrazol-1-yl)pyridin-2-yl)methanone]",< 5.30
2,"Cc1ccc(-c2ccccn2)c(C(=O)N2CCC[C@@H](C)[C@H]2CNc2ncc(C(F)(F)F)cn2)n1 [Example A167, ((2S,3R)-3-Methyl-2-(((5-(trifluoromethyl)pyrimidin-2-yl)amino)methyl)piperidin-1-yl)(6′-methyl-[2,3′-bipyridin]-2′-yl)methanone]",< 5.30
3,"Cc1ccc(-n2cccn2)c(C(=O)N2CCC[C@@H](C)[C@H]2CNc2ccc(Cl)cn2)n1 [Example A168, ((2S,3R)-2-(((5-Chloropyridin-2-yl)amino)methyl)-3-methylpiperidin-1-yl)(6-methyl-3-(1H-pyrazol-1-yl)pyridin-2-yl)methanone]",< 5.30
4,"Cc1ccc(-c2ccccn2)c(C(=O)N2CCC[C@@H](C)[C@H]2CNc2ccc(Cl)cn2)n1 [Example A169, ((2S,3R)-2-(((5-Chloropyridin-2-yl)amino)methyl)-3-methylpiperidin-1-yl)(6′-methyl-[2,3′-bipyridin]-2′-yl)methanone]",< 5.30
5,"Cc1ccc(-n2nccn2)c(C(=O)N2CCC[C@@H](C)[C@H]2CNc2ncc(F)cn2)c1 [Example A171, ((2S,3R)-2-(((5-Fluoropyrimidin-2-yl)amino)methyl)-3-methylpiperidin-1-yl)(5-methyl-2-(2H-1,2,3-triazol-2-yl)phenyl)methanone]",< 5.30
6,"Cc1ccc(-n2nccn2)c(C(=O)N2CCC[C@@H](C)[C@H]2CNc2ncc(F)cc2F)c1 [Example A172, ((2S,3R)-2-(((3,5-Difluoropyridin-2-yl)amino)methyl)-3-methylpiperidin-1-yl)(5-methyl-2-(2H-1,2,3-triazol-2-yl)phenyl)methanone]",< 5.30
7,"Cc1ccc(-n2nccn2)c(C(=O)N2CCC[C@@H](C)[C@H]2CNc2ncc(Cl)cc2F)c1 [Example A173, ((2S,3R)-2-(((5-Chloro-3-fluoropyridin-2-yl)amino)methyl)-3-methylpiperidin-1-yl)(5-methyl-2-(2H-1,2,3-triazol-2-yl)phenyl)methanone]",< 5.30
8,"Cc1ccc(-n2nccn2)c(C(=O)N2CCC[C@@H](C)[C@H]2CNc2ccc(C(F)(F)F)cn2)n1 [Example A174, ((2S,3R)-3-Methyl-2-(((5-(trifluoromethyl)pyridin-2-yl)amino)methyl)piperidin-1-yl)(6-methyl-3-(2H-1,2,3-triazol-2-yl)pyridin-2-yl)methanone]",< 5.30
9,"Cc1ccc(-n2nccn2)c(C(=O)N2CCC[C@@H](C)[C@H]2CNc2ncc(C(F)(F)F)cn2)n1 [Example A175, ((2S,3R)-3-Methyl-2-(((5-(trifluoromethyl)pyrimidin-2-yl)amino)methyl)piperidin-1-yl)(6-methyl-3-(2H-1,2,3-triazol-2-yl)pyridin-2-yl)methanone]",< 5.30
10,"Cc1ccc(-n2nccn2)c(C(=O)N2CCC[C@@H](C)[C@H]2CNc2ccc(C(F)(F)F)nn2)n1 [Example A176, ((2S,3R)-3-Methyl-2-(((6-(trifluoromethyl)pyridazin-3-yl)amino)methyl)piperidin-1-yl)(6-methyl-3-(2H-1,2,3-triazol-2-yl)pyridin-2-yl)methanone]",< 5.30
11,"Cc1ccc(-n2nccn2)c(C(=O)N2CCC[C@@H](C)[C@H]2CNc2ncc(Cl)cn2)n1 [Example A177, ((2S,3R)-2-(((5-Chloropyrimidin-2-yl)amino)methyl)-3-methylpiperidin-1-yl)(6-methyl-3-(2H-1,2,3-triazol-2-yl)pyridin-2-yl)methanone]",< 5.30
12,"Cc1ccc(-n2nccn2)c(C(=O)N2CCC[C@@H](C)[C@H]2CNc2ccc(Cl)cn2)n1 [Example A178, ((2S,3R)-2-(((5-Chloropyridin-2-yl)amino)methyl)-3-methylpiperidin-1-yl)(6-methyl-3-(2H-1,2,3-triazol-2-yl)pyridin-2-yl)methanone]",< 5.30
13,"Cc1ccc(-c2ccccn2)c(C(=O)N2CCC[C@@H](C)[C@H]2CNc2ncc(F)cn2)c1 [Example A179, ((2S,3R)-2-(((5-Fluoropyrimidin-2-yl)amino)methyl)-3-methylpiperidin-1-yl)(5-methyl-2-(pyridin-2-yl)phenyl)methanone]",< 5.30
14,"Cc1ccc(-n2nccn2)c(C(=O)N2CCC[C@@H](C)[C@H]2CNc2nc3ccccc3o2)c1 [Example A180, ((2S,3R)-2-((Benzo[d]oxazol-2-ylamino)methyl)-3-methylpiperidin-1-yl)(5-methyl-2-(2H-1,2,3-triazol-2-yl)phenyl)methanone]",6.80
15,"Cc1ccc(-c2ncccn2)c(C(=O)N2CCC[C@@H](C)[C@H]2CNc2ncc(Cl)cc2F)c1 [Example A181, ((2S,3R)-2-(((5-Chloro-3-fluoropyridin-2-yl)amino)methyl)-3-methylpiperidin-1-yl)(5-methyl-2-(pyrimidin-2-yl)phenyl)methanone]",< 5.30
16,"Cc1ccc(-c2ncccn2)c(C(=O)N2CCC[C@@H](C)[C@H]2CNc2ncc(C(F)(F)F)cn2)n1 [Example A184, ((2S,3R)-3-Methyl-2-(((5-(trifluoromethyl)pyrimidin-2-yl)amino)methyl)piperidin-1-yl)(6-methyl-3-(pyrimidin-2-yl)pyridin-2-yl)methanone]",5.60
17,"Cc1ccc(-c2ncccn2)c(C(=O)N2CCC[C@@H](C)[C@H]2CNc2ccc(C(F)(F)F)nn2)n1 [Example A185, ((2S,3R)-3-Methyl-2-(((6-(trifluoromethyl)pyridazin-3-yl)amino)methyl)piperidin-1-yl)(6-methyl-3-(pyrimidin-2-yl)pyridin-2-yl)methanone]",< 5.30
18,"Cc1ccc(-c2ncccn2)c(C(=O)N2CCC[C@@H](C)[C@H]2CNc2ccc(Cl)cn2)n1 [Example A186, ((2S,3R)-2-(((5-chloropyridin-2-yl)amino)methyl)-3-methylpiperidin-1-yl)(6-methyl-3-(pyrimidin-2-yl)pyridin-2-yl)methanone]",< 5.30
19,"Cc1ccc(-c2ncccn2)c(C(=O)N2CCC[C@@H](C)[C@H]2CNc2nnc(C(F)(F)F)s2)n1 [Example A187, ((2S,3R)-3-Methyl-2-(((5-(trifluoromethyl)-1,3,4-thiadiazol-2-yl)amino)methyl)piperidin-1-yl)(6-methyl-3-(pyrimidin-2-yl)pyridin-2-yl)methanone]",< 5.30
20,"Cc1ccc(-n2nccn2)c(C(=O)N2CCC[C@@H](C)[C@H]2CNc2ncc(C(F)(F)F)cc2F)n1 [Example A188, ((2S,3R)-2-(((3-Fluoro-5-(trifluoromethyl)pyridin-2-yl)amino)methyl)-3-methylpiperidin-1-yl)(6-methyl-3-(2H-1,2,3-triazol-2-yl)pyridin-2-yl)methanone]",5.64
21,"Cc1ccc(-n2nccn2)c(C(=O)N2CCC[C@@H](C)[C@H]2CNc2ccc(C#N)cn2)n1 [Example A189, 6-((((2S,3R)-3-Methyl-1-(6-methyl-3-(2H-1,2,3-triazol-2-yl)picolinoyl)piperidin-2-yl)methyl)amino)nicotinonitrile]",< 5.30
22,"Cc1ccc(-n2nccn2)c(C(=O)N2CCC[C@@H](C)[C@H]2CNc2ncc(C#N)cn2)n1 [Example A190, 2-((((2S,3R)-3-Methyl-1-(6-methyl-3-(2H-1,2,3-triazol-2-yl)picolinoyl)piperidin-2-yl)methyl)amino)pyrimidine-5-carbonitrile]",< 5.30
23,"Cc1ccc(-n2nccn2)c(C(=O)N2CCC[C@@H](C)[C@H]2CNc2nnc(C(F)(F)F)s2)n1 [Example A191, ((2S,3R)-3-Methyl-2-(((5-(trifluoromethyl)-1,3,4-thiadiazol-2-yl)amino)methyl)piperidin-1-yl)(6-methyl-3-(2H-1,2,3-triazol-2-yl)pyridin-2-yl)methanone]",< 5.30
24,"Cc1ccc(-n2nccn2)c(C(=O)N2CCC[C@@H](C)[C@H]2CNc2ncc(C#N)cc2F)n1 [Example A193, 5-Fluoro-6-((((2S,3R)-3-methyl-1-(6-methyl-3-(2H-1,2,3-triazol-2-yl)picolinoyl)piperidin-2-yl)methyl)amino)nicotinonitrile]",< 5.30
25,"Cc1ccc(-n2nccn2)c(C(=O)N2CCC[C@@H](C)[C@H]2CN(C)c2ccc(C(F)(F)F)cn2)n1 [Example A194, ((2S,3R)-3-Methyl-2-((methyl(5-(trifluoromethyl)pyridin-2-yl)amino)methyl)piperidin-1-yl)(6-methyl-3-(2H-1,2,3-triazol-2-yl)pyridin-2-yl)methanone]",< 5.30
26,"Cc1ccc(-n2nccn2)c(C(=O)N2CCC[C@@H](C)[C@H]2CNc2nc3cc(Cl)ccc3o2)n1 [Example A195, ((2S,3R)-2-(((5-Chlorobenzo[d]oxazol-2-yl)amino)methyl)-3-methylpiperidin-1-yl)(6-methyl-3-(2H-1,2,3-triazol-2-yl)pyridin-2-yl)methanone]",6.41
27,"Cc1ccc(NC[C@@H]2[C@H](C)CCCN2C(=O)c2nc(C)ccc2-n2nccn2)nc1 [Example A196, ((2S,3R)-3-Methyl-2-(((5-methylpyridin-2-yl)amino)methyl)piperidin-1-yl)(6-methyl-3-(2H-1,2,3-triazol-2-yl)pyridin-2-yl)methanone]",< 5.30
28,"Cc1ccc(-c2cccnn2)c(C(=O)N2CCC[C@@H](C)[C@H]2CNc2ccc(C(F)(F)F)cn2)c1 [Example A197, ((2S,3R)-3-methyl-2-(((5-(trifluoromethyl)pyridin-2-yl)amino)methyl)piperidin-1-yl)(5-methyl-2-(pyridazin-3-yl)phenyl)methanone]",< 5.30
29,"Cc1ccc(-c2cccnn2)c(C(=O)N2CCC[C@@H](C)[C@H]2CNc2ncc(C(F)(F)F)cn2)c1 [Example A198, ((2S,3R)-3-Methyl-2-(((5-(trifluoromethyl)pyrimidin-2-yl)amino)methyl)piperidin-1-yl)(5-methyl-2-(pyridazin-3-yl)phenyl)methanone]",< 5.30

# pIC50: −log10 of the molar value.
